Results as given in patent US20180100153A1, “Method and kit for use in inhiiting tumor progression, predicting or determining tumor progression state in VGF expressing cancers” (Truebio LLC, priority 2016, published 2018).

Tests used:
Details in all cases: gefitinib 1 μM, 1 hr
[1] = system: phosphorylation of ERK and AKT in VGF-expressing HCC827 cells; assay: Immunoblotting of ERK and AKT phosphorylation
[2] = system: phosphorylation of EGFR, AKT and ERK in HCC827 cells; assay: Immunoblotting of EGFR, ERK and AKT phosphorylation; type: cell-based
From the text: (§1) Photographs represent growth of HCC827 and HCC827GR cells stained by crystal violet. […] (FIG. 1D) Representative phase-contrast images of HCC827 and HCC827GR cells. Scale bar, 100 μm. (FIG. 1E) Immunofluorescence analysis for assessing the expression of E-cadherin (E-cad, green) and Vimentin (VIM, red) expressions in HCC827GR versus HCC827 cells. Nuclei were stained in blue with DAPI. Scale bar, 100 μm. (FIG. 1F) Q-PCR analysis for measuring mRNA levels of CDH1 (E-cad), EPCAM (EpCAM), Vimentin (VIM) and TWIST1 in HCC827GR versus HCC827 cells.

[3] = system: phosphorylation of EGFR, AKT and ERK in HCC827GR cells; assay: as above; type: cell-based
From the text: as §1

COc1cc2ncnc(Nc3ccc(F)c(Cl)c3)c2cc1OCCCN1CCOCC1 [gefitinib]
phosphorylation of AKT [1]: not | phosphorylation of ERK [1]: attenuated | phosphorylation of EGFR [2]: attenuated | phosphorylation of ERK [2]: attenuated | phosphorylation of EGFR ([3]; HCC827GR cells): attenuated | phosphorylation of ERK ([3]; HCC827GR cells): attenuated | phosphorylation of AKT ([3]; HCC827GR compared to HCC827 cells): not diminished
